Patent US20090209570A1 (priority 2001, published 2009)

Sequences of proteins named here, by UniProt entry; tags and fusion partners are left off.
UniProt P33535, whole entry: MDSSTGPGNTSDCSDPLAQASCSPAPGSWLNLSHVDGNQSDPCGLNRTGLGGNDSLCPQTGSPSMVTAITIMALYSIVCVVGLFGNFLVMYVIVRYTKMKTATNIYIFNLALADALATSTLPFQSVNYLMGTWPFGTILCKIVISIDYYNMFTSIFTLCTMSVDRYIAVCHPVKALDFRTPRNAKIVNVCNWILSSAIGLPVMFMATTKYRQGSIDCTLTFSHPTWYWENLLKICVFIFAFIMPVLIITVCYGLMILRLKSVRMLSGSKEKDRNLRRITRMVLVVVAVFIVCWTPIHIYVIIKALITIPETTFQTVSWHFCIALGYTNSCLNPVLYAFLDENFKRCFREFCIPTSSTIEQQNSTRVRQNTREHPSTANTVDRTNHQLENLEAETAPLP

Molecular target: T1, μ-opioid receptors (Rattus norvegicus, UniProt P33535)
T1 construct: from tissue; host or cells: rat brain homogenate
Experiment: Opioid receptor binding studies with [3H]DAMGO on rat's brain homogenisates

SMILES: CO[C@@]12CC[C@H](NCC(=O)O)[C@@H]3Oc4c(O)ccc5c4[C@@]31CCN(C)C2C5 [Compound 3, (4,5α-epoxy-3-hydroxy-14β-methoxy-17-methylmorphinan-6α-ylamino)-acetic acid sesqui(trifluoroacetate)]
- Ki: 0.9 nM
